Results: publication PMC6508583 (Journal of the American Chemical Society, 2019)

System: Mycobacterium smegmatis A1408G mutant

SMILES: CCC[C@H]1[C@H](O)[C@@H](N)[C@@H](O[C@H]2[C@H](O[C@@H]3O[C@H](CO)[C@@H](O[C@H]4O[C@@H](CN)[C@@H](O)[C@H](O)[C@H]4N)[C@H]3O)[C@@H](O)[C@H](N)C[C@@H]2N)O[C@@H]1CO [Compound 5, 4’-deoxy-4’-propylparomomycin]
- Antibacterial activity (MIC) A1408G mutant M. smegmatis (A1408G mutant): 16 to 32 µg/mL
- Activity Loss = MIC Mutant/MIC wild-type (M. smegmatis A1408G vs wild-type): 100–200
